Screens as filed in PubChem BioAssay.
uPA generation: inhibitors of cell surface uPA generation; Potency, µM (top dose mostly 38.3 µM), without a hit: at the top dose activity change, negative = inhibition, most hits filed as inhibitors; hit rate 0.31% among 330,000; cell surface uPA generation assay, qHTS; active = well fitted inhibition curve with a large enough effect; inconclusive = small, poorly fitted or top-dose-only effect; inactive = no such curve, though single readings can be large or run the other way; tested in mouse RAW 264.7 cells; also: potency is read from the fitted curve at half-maximal effect; % is scaled to controls: 0 for no effect and ±100 for the full control effect; nearly all actives have a fitted effect of over 55% in size
TDP1 cell CPT: DT40-hTDP1 cell growth loss with CPT; chicken DT40 Tdp1-/-;hTDP1 cells + 20 nM CPT, ATP luminescence, 48 h; Potency, µM (titrated, usually from 46.2 µM), for inactives: at the highest dose activity change, negative = growth inhibition, actives largely listed as inhibitors; hit rate 12% among 420,000; AID 686979; also: potency is read from the fitted curve at half-maximal effect; % is scaled to controls: 0 for no effect and ±100 for the full control effect; nearly all actives have a fitted effect of over 55% in size
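Cell growth measured by CellTiter-Glo luminescence after a minimum 48 h, 37 C compound exposure with 20 nM CPT in Tdp1-knockout DT40 cells stably expressing hTDP1, seeded 400/well; qHTS titration format.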
TDP1 block: TDP1 (human) enzyme inhibition; Potency, µM (titrated, usually from 130 µM), for inactives: top-dose activity change, negative = inhibition, most hits filed as inhibitors; Q9NUW8; hit rate 0.28% among 350,000; recombinant TDP1, AlphaScreen DNA substrate cleavage; also: potency is read from the fitted curve at half-maximal effect; % is scaled to controls: 0 for no effect and ±100 for the full control effect; nearly all actives have a fitted effect of over 40% in size
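Enzyme-compound mixtures sat 15 min at room temperature, followed by a 5 min reaction with 15 nM final substrate and 10 min with AlphaScreen beads. Recombinant human Tdp1 was used at 1 nM final.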
miR-21 reporter: raises the signal of a miR-21 reporter; HeLa miR-21 FLuc reporter, luciferase, 48 h; Potency, µM (top dose mostly 38.3 µM), for inactives: at the highest dose reporter change, positive = more light; AID 2288; 340,000 tested, under 10 active; active = well fitted rising curve with a large enough effect; inconclusive = small, poorly fitted or top-dose-only effect; inactive = no such curve, though single readings can be large or run the other way;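 note: % of control where 0% means no effect; miR-21 action dims this reporter so a rising signal means less miR-21 action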
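HeLa cells stably expressing CMV-driven firefly luciferase with a downstream miR-21 binding sequence, endogenously expressing miR-21, were treated with titrations (up to about 40uM final) for 48 hours at 37 degree Celsius. Luciferase luminescence was read after lysis.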
TDP1 cell noCPT: qHTS for Inhibitors of human tyrosyl-DNA phosphodiesterase 1 (TDP1): qHTS in cells in absence of CPT. DT40 Tdp1-/- hTDP1 cells, no CPT, ATP luminescence, 48 h. Potency, µM (top dose mostly 46.2 µM), for inactives: top-dose activity change, negative = growth inhibition, usual class: inhibitors. hit rate 15% among 420,000. AID 686978, 2013; also: potency is read from the fitted curve at half-maximal effect; % is scaled to controls: 0 for no effect and ±100 for the full control effect; nearly all actives have a fitted effect of over 55% in size
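Seeded 400 DT40-hTDP1 cells/well (vehicle DMSO, no 20 nM CPT); pinned compounds; ≥48 hr at 37 °C; CellTiter-Glo luminescence as viability measure.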
Active calls of the source: *; ? = inconclusive; nt = no result; [ ] = remark or other dose. Compounds with a hit are over-represented: about 16% of the library has one in this group of screens. Unless noted, calls follow the shape of the dose curve; as a rule, active = well fitted curve in the direction sought with a large enough effect; inconclusive = small, poorly fitted or top-dose-only effect, or another doubt; inactive = no such curve, though single readings can be large; an effect the other way counts as inactive or inconclusive.

# | Compound | uPA generation | TDP1 cell CPT | TDP1 block | miR-21 reporter | TDP1 cell noCPT
1 | CCOc1ccccc1C(=O)Nc1nc2c(s1)CC(C)CC2 (configuration not stated) | nt | ? | -3% | -59% | 21µM*
2 | O=C(CN(Cc1ccccc1)C(=O)CNS(=O)(=O)c1ccccc1)NCC1CCCO1 (configuration not stated) | 0% | -18% | 0% | 2% | -16%
3 | Cc1cc(NC(=O)CN2CCC(C)CC2)nc2c1c(=O)oc1ccccc12 | nt | ? | 2% | 0% | 21µM*
4 | CCC1CCCCN1CC(=O)Nc1cc(C)c2c(=O)oc3ccccc3c2n1 (configuration not stated) | nt | 18% | -2%[12.3 µM] | 2% | -9%
5 | Cc1cc(NC(=O)CN2CCc3ccccc3C2)nc2c1c(=O)oc1ccccc12 | -4% | 21µM* | nt | -1% | 18µM*
6 | O=C(Cn1c2ccccc2c2nc3n(c(=O)c21)CCS3)Nc1ccccc1C(F)(F)F | 7% | 10% | 4% | -2% | -27%
7 | CC(C)(C)c1ccc(OC(=O)Nc2ccc(O)c(C(=O)O)c2)cc1 | -28% | 2% | nt | 18% | 8%
8 | Cc1ccc(S(=O)(=O)Oc2cccc(/C=N/n3cnnc3)c2)cc1 | ? | 8.2µM* | 2% | -6% | 8.2µM*
9 | COc1ccccc1NC(=O)CSc1sc2c(O)cc(=O)[nH]c2c1C#N | -2% | 0% | 3% | 2% | -9%
10 | CCCCc1c(-c2ccc(F)cc2F)ncn1CCc1ccccc1OC | nt | 23µM* | nt | nt | 26µM*
11 | COc1ccccc1CCn1c(=O)c(-c2ccc(F)cc2)nc2cncnc21 | nt | 8% | nt | nt | 0%
12 | CCCCc1c(Cc2cccc(F)c2)ncn1CCc1ccccc1OC | nt | ? | nt | nt | 13µM*

Structures above that have fluorine (4):
# | Compound | uPA generation | TDP1 cell CPT | TDP1 block | miR-21 reporter | TDP1 cell noCPT
6 | O=C(Cn1c2ccccc2c2nc3n(c(=O)c21)CCS3)Nc1ccccc1C(F)(F)F | 7% | 10% | 4% | -2% | -27%
10 | CCCCc1c(-c2ccc(F)cc2F)ncn1CCc1ccccc1OC | nt | 23µM* | nt | nt | 26µM*
11 | COc1ccccc1CCn1c(=O)c(-c2ccc(F)cc2)nc2cncnc21 | nt | 8% | nt | nt | 0%
12 | CCCCc1c(Cc2cccc(F)c2)ncn1CCc1ccccc1OC | nt | ? | nt | nt | 13µM*

Next records follow.
# | Compound | uPA generation | TDP1 cell CPT | TDP1 block | miR-21 reporter | TDP1 cell noCPT
13 | CCCCCc1c(-c2ccc(F)cc2F)ncn1CCc1ccccc1OC | nt | ? | nt | nt | 21µM*
14 | CCCCn1c(=O)n(Cc2cccc(F)c2)c(=O)c2c1ncn2Cc1ccco1 | 0% | ? | 7% | 1% | ?
15 | Cc1nc(NC(=O)CN2CCCCC2)sc1C(=O)N(C)C | 0% | -10% | 6% | -5% | -8%
16 | CCc1cc2cc(C(=O)Nc3ccc(C)cc3)sc2s1 | 5% | -30% | -3% | -49% | ?
17 | CCc1cccc2c(C(=O)CN3C(=O)NC(C)(c4cccc5ccccc45)C3=O)c[nH]c12 (configuration not stated) | -13% | ? | 5% | 12% | ?
18 | COc1cc(=O)n2c(c1C(=O)NC(C)c1ccco1)CCN(C(=O)c1cccc(C)c1C)CC2 (configuration not stated) | nt | 0.16µM* | nt | nt | -15%
19 | O=C1NC(c2ccccc2OC(F)F)Oc2ccccc21 (configuration not stated) | 5% | 5% | -2% | -4% | -24%
20 | CCCCc1nnc(NC(=O)c2ccccc2OCc2c(C)noc2C)s1 | 13% | 16µM* | -11% | nt | 23µM*
21 | COc1ccc(CCN2CC(C(=O)OCC(=O)c3c(N)n(CC(C)C)c(=O)n(C)c3=O)CC2=O)cc1OC (configuration not stated) | nt | 21µM* | nt | nt | 13µM*
22 | CC(C)Cn1c(N)c(C(=O)COC(=O)C2CC(=O)N(Cc3ccccc3Cl)C2)c(=O)n(C)c1=O (configuration not stated) | -10% | ? | -1% | 8% | 16µM*
23 | O=C(CCc1ccc(Oc2cc([N+](=O)[O-])cc([N+](=O)[O-])c2)cc1)N1CCCCCC1 | -4% | 18µM* | 3% | 3% | ?
24 | O=C(Cc1ccc([N+](=O)[O-])cc1)N1CCN(c2ccc([N+](=O)[O-])cc2)CC1 | ? | 18µM* | nt | 29% | 7.3µM*
25 | O=[N+]([O-])c1ccc(-c2csc(N3CCc4ccccc4C3)n2)cc1 | 6% | -12% | 2% | -7% | -1%
26 | O=C(Cc1ccc([N+](=O)[O-])cc1)N1CCCCCC1 | 2% | -10% | 8% | -11% | ?
27 | O=C(Cn1cc([N+](=O)[O-])nc1[N+](=O)[O-])N1CCN(c2ccccc2)CC1 | -6% | 16µM* | 1% | 27% | ?
